The record followed here is patent US7169772B2, “4,4-difluoro-1,2,3,4-tetrahydro-5H-1-benzazepine derivatives or salts thereof” (Astellas Pharma Inc., priority 2001, dated 2007).

Chains of the proteins cited; added tags and fusions are not shown.
UniProt P11712, whole entry: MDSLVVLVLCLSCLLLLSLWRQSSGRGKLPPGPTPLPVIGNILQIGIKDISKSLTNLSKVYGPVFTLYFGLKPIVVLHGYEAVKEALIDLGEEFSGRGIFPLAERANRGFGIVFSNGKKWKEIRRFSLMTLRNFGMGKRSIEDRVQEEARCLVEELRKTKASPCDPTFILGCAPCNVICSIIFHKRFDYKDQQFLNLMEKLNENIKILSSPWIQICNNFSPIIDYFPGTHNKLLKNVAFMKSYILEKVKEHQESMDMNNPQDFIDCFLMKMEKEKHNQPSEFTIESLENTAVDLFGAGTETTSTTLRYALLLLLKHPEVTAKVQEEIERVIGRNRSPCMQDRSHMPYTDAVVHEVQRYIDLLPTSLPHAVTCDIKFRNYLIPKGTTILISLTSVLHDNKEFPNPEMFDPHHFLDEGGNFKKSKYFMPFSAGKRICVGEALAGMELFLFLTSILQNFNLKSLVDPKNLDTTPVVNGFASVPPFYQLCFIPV
UniProt P08684, whole entry: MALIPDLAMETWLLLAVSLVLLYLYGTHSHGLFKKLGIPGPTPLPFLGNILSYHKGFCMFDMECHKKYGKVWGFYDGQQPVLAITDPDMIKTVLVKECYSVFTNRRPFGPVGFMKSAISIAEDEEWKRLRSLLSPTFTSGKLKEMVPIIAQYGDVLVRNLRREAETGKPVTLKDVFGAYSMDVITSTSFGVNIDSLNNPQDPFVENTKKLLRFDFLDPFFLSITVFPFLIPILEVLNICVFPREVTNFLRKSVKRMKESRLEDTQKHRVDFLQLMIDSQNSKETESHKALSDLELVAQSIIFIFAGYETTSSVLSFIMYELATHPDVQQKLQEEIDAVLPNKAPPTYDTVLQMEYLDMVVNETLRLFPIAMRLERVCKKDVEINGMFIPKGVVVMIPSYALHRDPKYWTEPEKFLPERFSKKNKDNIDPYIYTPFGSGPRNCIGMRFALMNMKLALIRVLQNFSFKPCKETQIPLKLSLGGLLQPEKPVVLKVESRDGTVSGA

Broadly, the IC50 is the point on the concentration scale where inhibition reaches its midpoint.

Data set [1] deals with CYP2C9 (Homo sapiens, UniProt P11712). As to the kind of experiment: Cytochrome P450 (2C9) enzyme inhibition effects. The conditions noted are these: read-out: IC50 CYP2C9; substrate 7-methoxy-4-(trifluoromethyl)coumarin, 37° C., 45 minutes; tested form: HCl. How it is done: C0: fluorescence intensity in the presence of an enzyme and a substrate, in the absence of a test compound • B1: fluorescence intensity of a blank well (5) Cytochrome P450 (2C9) Enzyme Inhibition Effects
The assay was carried out in accordance with a method of Crespi, et al. (Analytical Biochemistry, 248, 188–190, 1997).
A 96 well plate was employed, and 7-methoxy-4-(trifluoromethyl)coumarin (7.5×10^−5 M) as a substrate, a test compound (4.9×10^−8˜5×10^−5M), and an enzyme (10^−8 M) were incubated in a total of 200 μl of a 200 mM phosphate buffer solution (pH=7.4) comprising 8.2 μM NADP+, 0.41 mM glucose-6-phosphate, 0.41 mM MgCl2, and 0.4 Units/ml glucose-6-phosphate dehydrogenase, at 37° C. for 45 minutes. Then, 0.5 M aqueous solution of 2-amino-2-hydroxymethyl-1,3-propanediol containing 80% acetonitrile was added thereto to stop the reaction, and fluorescence intensity was measured with a fluorescent plate reader (excited wavelength: 409 nm, fluorescent wavelength: 530 nm). Inhibition rate was calculated from the above equation in (4), and the concentration of the test compound corresponding to an inhibition rate of 50% (IC50) was calculated.

Data set [2] concerns the target CYP3A4 (Homo sapiens, UniProt P08684). Put plainly: Cytochrome P450 (3A4) enzyme inhibition assay. The following applies: read-out: IC50 CYP3A4; substrate 7-benzyloxy-4-(trifluoromethyl)coumarin, 37° C., 30 minutes; tested form: HCl.

Take `O=C(/C=C1/c2ccccc2N(C(=O)c2ccc(-n3cccn3)cc2Cl)CCC1(F)F)NCc1ccccn1`: the IC50 in data set [1] was 6.5 µM; in data set [2], 16 µM.
